# Data as given in article PMC8710044 (Biochemical pharmacology, 2021).
# Substrate: Cc1ccc(Cl)c(Nc2ccccc2C(=O)O)c1Cl
# Assay: cells, lysate or membranes named
# Conditions: other: CYP2C19; metabolite M9, path 4; 95% CI in parentheses; pH 7.4
protein,measurement,value
CYP2C19 (Homo sapiens) (protein) MDPFVVLVLCLSCLLLLSIWRQSSGRGKLPPGPTPLPVIGNILQIDIKDVSKSLTNLSKIYGPVFTLYFGLERMVVLHGYEVVKEALIDLGEEFSGRGHFPLAERANRGFGIVFSNGKRWKEIRRFSLMTLRNFGMGKRSIEDRVQEEARCLVEELRKTKASPCDPTFILGCAPCNVICSIIFQKRFDYKDQQFLNLMEKLNENIRIVSTPWIQICNNFPTIIDYFPGTHNKLLKNLAFMESDILEKVKEHQESMDINNPRDFIDCFLIKMEKEKQNQQSEFTIENLVITAADLLGAGTETTSTTLRYALLLLLKHPEVTAKVQEEIERVIGRNRSPCMQDRGHMPYTDAVVHEVQRYIDLIPTSLPHAVTCDVKFRNYLIPKGTTILTSLTSVLHDNKEFPNPEMFDPRHFLDEGGNFKKSNYFMPFSAGKRICVGEGLARMELFLFLTFILQNFNLKSLIDPKDLDTTPVVNGFASVPPFYQLCFIPV,Km,15.3 µM
